The values below come from article PMC5937119 (Bioconjugate chemistry, 2017).

In data set [1] the target is Recombinant human liver cathepsin-B (Homo sapiens, UniProt P07858). In words: Cathepsin-B cleavage of dual-dye-labeled peptides on resin. It counts as biochemical. To be noted: peptide on resin, supernatant at 3 and 24 h, plate reader, triplicates; Figure S4.
The conditions of data set [2]: previously reported PA; cited from earlier work.
The nature of data set [3]: Micelle size and shape by DLS and TEM. The note with it: FRET-capable PAs (Figure 3). It counts as physicochemical.
The next data set deals with HeLa cells. Nature of the data set: Pulse treatment: internalization, intracellular cleavage. It counts as cell-based, human. The note with it: for FRET signaling in cells by 6 h after incubation: HeLa cells incubated 1 h with PA then washed, followed for 6 h; for Intracellular localization 1 h following incubation: HeLa cells, 2.5 μM PA with 0.1 μM Alexa Fluor 647 transferrin, Figure 6.

Where two headings read alike, the source gives them in different places.

Turning to “GGG–p53(14–29): noncleavable p53(14–29) peptide on resin with FAM and Tamra fluorophores”, the “Tamra fluorescence in the media following catB addition (enzymolysis of internal p53(14–29) amino acids)” value in data set [1] is recorded as “minimal”.
Take “diC16–p53(14–29): previously reported p53(14–29) peptide amphiphile with diC16 tail”: in data set [2], the Micelle shape entry is “rod-like, elongated micelles”.
With “diC16–VC–PABA–p53(14–29): cathepsin-B cleavable p53(14–29) peptide amphiphile with diC16 tail, VC–PABA linker, FAM and Tamra dyes”, the Micelle shape entry in data set [3] was “spherical micelles”. In addition, the “FRET signaling in cells by 6 h after incubation” value in the data set on HeLa cells (Figure 5) was “almost undetectable”. In addition, in the data set on HeLa cells, the “Intracellular localization 1 h following incubation” value is given as “transferrin-positive early endosomes”.
Consider “diC16–GGG–p53(14–29): noncleavable control p53(14–29) peptide amphiphile with diC16 tail, GGG linker, FAM and Tamra dyes”, for which the Micelle shape result in data set [3] is reported as “spherical micelles”. The “FRET signaling in cells by 6 h after incubation” value in the data set on HeLa cells (Figure 5) was “decreased but still remained”. Further, the “FRET signal in cells at 3 h following incubation” value with HeLa cells (HeLa cells pulsed with 2.5 μM PA for 1 h and washed, Figure 5) is “retained”. Besides, the “Intracellular localization 1 h following incubation” value in the data set on HeLa cells is listed as “transferrin-positive early endosomes”.
